# In patent publication US20260234157A1 (published 2026):
# The chains behind the UniProt entries cited, without tags or fusion partners.
# UniProt P10275, whole entry T878A: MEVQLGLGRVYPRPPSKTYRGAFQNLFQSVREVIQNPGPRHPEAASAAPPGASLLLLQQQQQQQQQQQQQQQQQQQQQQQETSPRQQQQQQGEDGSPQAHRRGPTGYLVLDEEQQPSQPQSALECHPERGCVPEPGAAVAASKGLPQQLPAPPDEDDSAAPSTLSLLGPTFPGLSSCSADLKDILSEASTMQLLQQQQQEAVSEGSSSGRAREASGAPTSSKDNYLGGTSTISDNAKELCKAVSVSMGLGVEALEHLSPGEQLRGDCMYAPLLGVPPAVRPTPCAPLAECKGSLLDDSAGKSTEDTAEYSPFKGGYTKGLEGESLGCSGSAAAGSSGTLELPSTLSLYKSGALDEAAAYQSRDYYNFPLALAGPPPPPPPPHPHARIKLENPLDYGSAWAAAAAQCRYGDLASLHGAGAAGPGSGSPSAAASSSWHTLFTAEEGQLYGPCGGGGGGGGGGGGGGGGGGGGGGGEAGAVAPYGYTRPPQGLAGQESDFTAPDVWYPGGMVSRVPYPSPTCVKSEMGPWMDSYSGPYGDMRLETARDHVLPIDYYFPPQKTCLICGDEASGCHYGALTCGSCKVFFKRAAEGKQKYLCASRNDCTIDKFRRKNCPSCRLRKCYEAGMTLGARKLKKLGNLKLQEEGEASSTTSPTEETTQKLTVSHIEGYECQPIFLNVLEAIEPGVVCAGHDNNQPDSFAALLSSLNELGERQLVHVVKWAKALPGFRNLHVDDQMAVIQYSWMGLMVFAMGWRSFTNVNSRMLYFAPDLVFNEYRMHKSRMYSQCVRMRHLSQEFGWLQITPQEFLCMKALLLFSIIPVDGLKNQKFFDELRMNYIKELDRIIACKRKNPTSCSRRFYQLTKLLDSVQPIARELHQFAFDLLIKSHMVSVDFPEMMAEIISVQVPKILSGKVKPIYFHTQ
# Legend:
# AR protein [1] = biological target: AR protein (Homo sapiens, UniProt P10275, T878A); experiment: Degradation of AR protein in LNCaP cells (Western blot); format: cell-based; details: 8 h
# AR protein [2] = biological target: AR protein (Homo sapiens, UniProt P10275); experiment: Degradation of AR protein in VCaP cells (Western blot); format: cell-based; details: 8 h
smiles,measurement,setting,value
N#Cc1ccc(O[C@H]2CC[C@H](NC(=O)c3ccc(N4CCC(N5CCC6(CCc7cc8c(cc7O6)C(=O)N(C6CCC(=O)NC6=O)C8=O)CC5)[C@H](F)C4)nn3)CC2)cc1Cl (stereo partly shown) [Compound 24],inhibition at 0.01 µM,"AR protein [1]; read-out: Degradation rates of the AR protein in LNCaP cells, 10 nM (%)",40%
same,inhibition at 0.1 µM,"AR protein [1]; read-out: Degradation rates of the AR protein in LNCaP cells, 100 nM (%)",50%
same,inhibition at 0.01 µM,"AR protein [2]; read-out: Degradation rate of the AR protein in VCaP cells, 10 nM (%)",47%
same,inhibition at 0.1 µM,"AR protein [2]; read-out: Degradation rate of the AR protein in VCaP cells, 100 nM (%)",58%
